Results as given in PubChem BioAssay AID727 (The Scripps Research Institute Molecular Screening Center, 2007).
This is a selection; strong and weak results do not stand in their true shares. Some results for these compounds are left out of this collection, so the calls shown say nothing about other tests. The source made the active and inactive calls. Cut-off read from the data, not from the text of the source: active = inhibition above about 19%; inactive = the rest.

Sequences of proteins named here, by UniProt entry; tags and fusion partners are left off.
UniProt Q05397, whole entry: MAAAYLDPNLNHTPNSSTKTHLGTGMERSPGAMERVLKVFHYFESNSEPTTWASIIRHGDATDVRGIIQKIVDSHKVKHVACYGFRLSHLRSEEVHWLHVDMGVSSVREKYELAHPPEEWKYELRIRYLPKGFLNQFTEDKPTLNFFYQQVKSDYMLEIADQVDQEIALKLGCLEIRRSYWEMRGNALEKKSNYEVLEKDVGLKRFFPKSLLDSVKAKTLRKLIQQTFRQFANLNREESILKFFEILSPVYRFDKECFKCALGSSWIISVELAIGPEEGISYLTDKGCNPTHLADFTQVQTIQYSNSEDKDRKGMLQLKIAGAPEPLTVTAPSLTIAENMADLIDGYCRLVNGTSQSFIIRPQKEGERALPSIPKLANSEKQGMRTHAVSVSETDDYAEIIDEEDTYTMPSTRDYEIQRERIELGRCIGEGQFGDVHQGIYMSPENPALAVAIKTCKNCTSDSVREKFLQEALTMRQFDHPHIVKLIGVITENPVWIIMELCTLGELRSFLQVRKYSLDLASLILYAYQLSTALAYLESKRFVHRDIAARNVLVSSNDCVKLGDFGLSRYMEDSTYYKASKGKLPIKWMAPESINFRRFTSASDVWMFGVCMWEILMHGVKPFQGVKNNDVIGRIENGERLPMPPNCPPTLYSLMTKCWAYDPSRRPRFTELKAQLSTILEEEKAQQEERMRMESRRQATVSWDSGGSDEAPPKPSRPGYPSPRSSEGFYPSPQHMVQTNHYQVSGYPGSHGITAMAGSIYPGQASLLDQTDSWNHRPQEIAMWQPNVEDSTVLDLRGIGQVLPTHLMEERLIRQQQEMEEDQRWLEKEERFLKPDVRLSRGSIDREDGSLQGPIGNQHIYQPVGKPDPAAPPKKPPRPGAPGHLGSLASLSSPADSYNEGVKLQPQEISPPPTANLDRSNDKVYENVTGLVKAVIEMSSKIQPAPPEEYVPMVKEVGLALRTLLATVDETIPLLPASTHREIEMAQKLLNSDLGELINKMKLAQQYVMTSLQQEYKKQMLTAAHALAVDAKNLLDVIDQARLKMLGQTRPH

The compounds below were run against Focal adhesion kinase 1 (Homo sapiens) (UniProt Q05397) (assay: FAK kinase inhibitors, primary screen, biochemical (AID 727;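 note: 0% = DMSO and 100% = reference compound high control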)). Details: biochemical FAK kinase activity assay; hits give high values;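 tested at 7 µM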.

| Compound | inhibition |
| --- | --- |
| O=C(OC1CN2CCC1CC2)C(CO)(c1ccccc1)c1ccccc1 (stereo not drawn) | inactive: -0.19% |
| CN(C)c1cccc(C(=O)NCC2(N(C)C)CCCCC2)c1 | inactive: 0.57% |
| CC(C)N1C(=O)CC2(CCN(CCOC(=O)C(O)(c3ccccc3)c3ccccc3)CC2)C1=O | inactive: 0.25% |
